Reference: PMC6985722, “A Randomized, Placebo-Controlled, Respiratory Syncytial Virus Human Challenge Study of the Antiviral Efficacy, Safety, and Pharmacokinetics of RV521, an Inhibitor of the RSV-F Protein” (Antimicrobial Agents and Chemotherapy, 2020)

Assays:
Format in all cases: in vivo
RSV-A Memphis-37b [1] = test: RSV human challenge study: viral load in nasal wash by quantitative culture; settings: for Peak viral load (quantitative culture), difference in mean relative to placebo: ITT-A; for Peak viral load (quantitative culture), difference in mean relative to that of placebo (95% CI): ITT-I
Experimental: (§1) Subjects were screened outside the RSV season for eligibility, including measurement of RSV-A Memphis-37b-specific neutralizing antibody titer, ≤90 days before virus challenge. Eligible subjects were admitted to the quarantine unit on day −2 or day −1 and were inoculated intranasally on day 0 with the challenge virus, RSV-A Memphis-37b (4 log10 PFU/ml, given as one 0.4-ml installation per naris), as previously described ([26]). Nasal wash sampling every 12 h for confirmation of RSV infection by qualitative integrated cycler PCR ([12], [19]) began on the morning of day 2. Treatment began 12 h (±1 h) after collection of a nasal wash sample confirming RSV infection or on the evening of day 5 if RSV infection remained unconfirmed by the morning of day 5.
(§2) The study comprised two consecutive cohorts. Subjects in the first cohort received 200 mg RV521 or placebo; those in the second received 350 mg RV521 or placebo. […] In each cohort, subjects received 10 consecutive doses of RV521 or placebo, administered in a fasted state as oral capsules, approximately 12 h apart. Subjects were discharged on day 12 if nasopharyngeal swab samples tested negative by RSV rapid antigen assay (QuickVue RSV test; Quidel, San Diego, CA, USA). If such tests were positive or if a subject remained symptomatic, quarantine was extended to allow further observation. All subjects were evaluated on day 28 (±3 days).
Twice-daily collection of nasal wash samples allowed measurement of viral load via RT-qPCR and quantitative culture. […] Throughout the quarantine period, used tissues were collected and weighed daily, and total nasal mucus weight was recorded. […] AEs were monitored daily, coded according to the Medical Dictionary for Regulatory Activities Version 20.0, and graded according to the National Cancer Institute Common Terminology Criteria for Adverse Events Version 4.0 (see Supplemental Methods for further details).
The primary efficacy endpoint was AUC for RSV viral load, as measured by RT-qPCR, in nasal wash samples taken twice daily from just before the first dose until discharge (day 12). Viral load data were provided as log10 PFUe/ml; AUC (log10 PFUe/ml · h) was calculated using the trapezoid rule. Secondary efficacy endpoints related to viral load were AUC of RSV viral load, as assessed by quantitative culture, and the following measures, which were each assessed using both RT-qPCR and quantitative culture: peak viral load, time to peak viral load, and time to <1 log10 (for RT-qPCR) or undetectable (for quantitative culture) viral load (considered to occur at the first confirmed undetectable assessment after which no further virus was detected). […]

RSV-A Memphis-37b [2] = test: RSV human challenge study: disease severity (total symptom score, nasal mucus weight); settings: for Daily nasal mucus weight, difference in LS mean relative to placebo / Peak total symptom score, difference in mean relative to placebo (95% CI) / Time to peak total symptom score, difference in mean relative to placebo (95% CI) / Time to resolution from peak total symptom score, difference in mean relative to placebo: ITT-A; for AUC total symptom score, reduction in mean relative to that of placebo / Daily nasal mucus weight, difference in LS mean relative to that of placebo / Peak total symptom score, difference in mean relative to that of placebo (95% CI) / Time to peak total symptom score, difference in mean relative to that of placebo (95% CI): ITT-I
Experimental: as §1, §2
(§3) Twice-daily collection of nasal wash samples allowed measurement of viral load via RT-qPCR and quantitative culture. RT-qPCR results were reported as PFUe/ml when the standard curve included in each assay contained a known infectious amount (PFU) of RSV, as described previously ([30]). Subjects reported the occurrence and severity of symptoms three times daily using a 10-item subject symptom diary card as previously reported ([12]) (see Supplemental Methods). Throughout the quarantine period, used tissues were collected and weighed daily, and total nasal mucus weight was recorded. PK assessments were based on venous blood samples. Safety assessments included measurement of vital signs, standard 12-lead ECG recordings, spirometry, a complete physical examination, and a respiratory-directed physical examination. AEs were monitored daily, coded according to the Medical Dictionary for Regulatory Activities Version 20.0, and graded according to the National Cancer Institute Common Terminology Criteria for Adverse Events Version 4.0 (see Supplemental Methods for further details).
(§4) The primary efficacy endpoint was AUC for RSV viral load, as measured by RT-qPCR, in nasal wash samples taken twice daily from just before the first dose until discharge (day 12). Viral load data were provided as log10 PFUe/ml; AUC (log10 PFUe/ml · h) was calculated using the trapezoid rule. Secondary efficacy endpoints related to viral load were AUC of RSV viral load, as assessed by quantitative culture, and the following measures, which were each assessed using both RT-qPCR and quantitative culture: peak viral load, time to peak viral load, and time to <1 log10 (for RT-qPCR) or undetectable (for quantitative culture) viral load (considered to occur at the first confirmed undetectable assessment after which no further virus was detected). Secondary efficacy endpoints related to clinical symptoms included AUC total symptom score; peak total symptom score; time to peak total symptom score; and the total weight of nasal mucus produced. Other secondary outcomes were safety, PK, and sequence detection of viral variants (see Supplemental Methods).
All statistical analyses were performed using two-sided testing. Student’s t tests were performed for normally distributed data with a constant variance; otherwise, the Satterthwaite t test or nonparametric tests were used. For the mucus weight analysis, the least-squares mean was calculated from a mixed model with repeated measures, adjusted for baseline mucus weight and treatment group as covariates and subject as a random effect.

RSV-A Memphis-37b [3] = test: RSV human challenge study: viral load in nasal wash by RT-qPCR; settings: for AUC of viral load (RT-qPCR), difference in mean relative to placebo / Peak viral load (RT-qPCR), difference in mean relative to placebo / Time to peak viral load (RT-qPCR), difference in mean relative to placebo: ITT-A; for AUC of viral load (RT-qPCR), difference in mean relative to that of placebo (95% CI) / Peak viral load (RT-qPCR), difference in mean relative to that of placebo (95% CI) / Time to peak viral load (RT-qPCR), difference in mean relative to that of placebo (95% CI): ITT-I
Experimental: as §1, §2, §3, §4
The primary efficacy analysis population (the ITT-I analysis set) comprised all randomized subjects who received challenge virus and at least one dose of study drug and met the criterion for laboratory-confirmed RSV infection (presence of detectable RSV). […]

NCc1ccc2c(c1)nc(CN1C(=O)C3(CC3)c3ccc(F)cc31)n2CCCC(F)(F)F [RV521]
Peak viral load (quantitative culture), difference in mean relative to placebo (RSV-A Memphis-37b [1]; 200 mg): –1.78 log10 PFU/mL
Peak viral load (quantitative culture), difference in mean relative to that of placebo (95% CI) (RSV-A Memphis-37b [1]; 200 mg): −1.54 (−2.77, −0.30) log10 PFU/ml
Peak viral load (quantitative culture), difference in mean relative to placebo (RSV-A Memphis-37b [1]; 350 mg): –1.79 log10 PFU/mL
Peak viral load (quantitative culture), difference in mean relative to that of placebo (95% CI) (RSV-A Memphis-37b [1]; 350 mg): −1.67 (−2.95, −0.40) log10 PFU/ml
Daily nasal mucus weight, difference in LS mean relative to placebo (RSV-A Memphis-37b [2]; 200 mg): 52.94%
Peak total symptom score, difference in mean relative to placebo (95% CI) (RSV-A Memphis-37b [2]; 200 mg): –3.22 (–6.03, –0.40)
Time to peak total symptom score, difference in mean relative to placebo (95% CI) (RSV-A Memphis-37b [2]; 200 mg): –0.25 (–1.73, 1.22) days
Time to resolution from peak total symptom score, difference in mean relative to placebo (RSV-A Memphis-37b [2]; 200 mg): –1.46 days
AUC total symptom score, reduction in mean relative to that of placebo (RSV-A Memphis-37b [2]; 200 mg): 70.84%
Daily nasal mucus weight, difference in LS mean relative to that of placebo (RSV-A Memphis-37b [2]; 200 mg): 45.90%
Peak total symptom score, difference in mean relative to that of placebo (95% CI) (RSV-A Memphis-37b [2]; 200 mg): −2.72 (−5.22, −0.22)
Time to peak total symptom score, difference in mean relative to that of placebo (95% CI) (RSV-A Memphis-37b [2]; 200 mg): 0.25 (−1.24, 1.75) days
Daily nasal mucus weight, difference in LS mean relative to placebo (RSV-A Memphis-37b [2]; 350 mg): 61.76%
Peak total symptom score, difference in mean relative to placebo (95% CI) (RSV-A Memphis-37b [2]; 350 mg): –3.54 (–6.37, –0.72)
Time to peak total symptom score, difference in mean relative to placebo (95% CI) (RSV-A Memphis-37b [2]; 350 mg): –0.82 (–2.06, 0.43) days
Time to resolution from peak total symptom score, difference in mean relative to placebo (RSV-A Memphis-37b [2]; 350 mg): –1.75 days
AUC total symptom score, reduction in mean relative to that of placebo (RSV-A Memphis-37b [2]; 350 mg): 78.42%
Daily nasal mucus weight, difference in LS mean relative to that of placebo (RSV-A Memphis-37b [2]; 350 mg): 55.74%
Peak total symptom score, difference in mean relative to that of placebo (95% CI) (RSV-A Memphis-37b [2]; 350 mg): −3.12 (−5.59, −0.64)
Time to peak total symptom score, difference in mean relative to that of placebo (95% CI) (RSV-A Memphis-37b [2]; 350 mg): −0.26 (−1.56, 1.03) days
AUC of viral load (RT-qPCR), difference in mean relative to placebo (RSV-A Memphis-37b [3]; 200 mg): –351.40 hours x log 10 PFUe/mL
Peak viral load (RT-qPCR), difference in mean relative to placebo (RSV-A Memphis-37b [3]; 200 mg): –1.8 log10 PFUe/mL
Time to peak viral load (RT-qPCR), difference in mean relative to placebo (RSV-A Memphis-37b [3]; 200 mg): –1.68 days
AUC of viral load (RT-qPCR), difference in mean relative to that of placebo (95% CI) (RSV-A Memphis-37b [3]; 200 mg): −277.04 (−471.63, −82.46) log10 PFUe/ml · h
Peak viral load (RT-qPCR), difference in mean relative to that of placebo (95% CI) (RSV-A Memphis-37b [3]; 200 mg): −1.30 (−2.47, −0.13) log10 PFUe/ml
Time to peak viral load (RT-qPCR), difference in mean relative to that of placebo (95% CI) (RSV-A Memphis-37b [3]; 200 mg): −1.74 (−2.36, −1.11) days
AUC of viral load (RT-qPCR), difference in mean relative to placebo (RSV-A Memphis-37b [3]; 350 mg): –377.60 hours x log 10 PFUe/mL
Peak viral load (RT-qPCR), difference in mean relative to placebo (RSV-A Memphis-37b [3]; 350 mg): –1.85 log10 PFUe/mL
Time to peak viral load (RT-qPCR), difference in mean relative to placebo (RSV-A Memphis-37b [3]; 350 mg): –0.98 days
AUC of viral load (RT-qPCR), difference in mean relative to that of placebo (95% CI) (RSV-A Memphis-37b [3]; 350 mg): −316.14 (−506.71, −125.57) log10 PFUe/ml · h
Peak viral load (RT-qPCR), difference in mean relative to that of placebo (95% CI) (RSV-A Memphis-37b [3]; 350 mg): −1.59 (−2.96, −0.23) log10 PFUe/ml
Time to peak viral load (RT-qPCR), difference in mean relative to that of placebo (95% CI) (RSV-A Memphis-37b [3]; 350 mg): −1.06 (−1.96, −0.15) days
